1 substance from article PMC11272584 (Nature Metabolism, 2024) can be followed below.

Positions count from the first letter of the chain named.

One assay concerns the target T1, GIPR S382Y (Homo sapiens, UniProt P48546, S382Y).
T1 construct: host or cells: HEK293
Put plainly: cAMP accumulation. It counts as cell-based. In general terms: Cyclic AMP is a second messenger, typically raised through Gs and lowered through Gi signalling.

A further assay addresses T2, GIPR S382T (Homo sapiens, UniProt P48546, S382T).
T2 sequence (P48546 22-466 S382T): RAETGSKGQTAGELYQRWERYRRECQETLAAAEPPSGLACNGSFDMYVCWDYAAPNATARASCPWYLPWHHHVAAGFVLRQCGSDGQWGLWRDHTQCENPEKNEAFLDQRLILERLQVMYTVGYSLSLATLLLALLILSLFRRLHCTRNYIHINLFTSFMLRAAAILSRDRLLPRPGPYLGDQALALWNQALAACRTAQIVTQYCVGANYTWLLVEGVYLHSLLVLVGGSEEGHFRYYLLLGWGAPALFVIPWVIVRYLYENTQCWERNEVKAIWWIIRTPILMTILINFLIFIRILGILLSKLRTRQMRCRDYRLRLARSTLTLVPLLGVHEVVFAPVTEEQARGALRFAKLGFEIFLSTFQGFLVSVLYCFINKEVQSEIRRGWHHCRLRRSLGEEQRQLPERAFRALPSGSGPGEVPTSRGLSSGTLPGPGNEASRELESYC
As to conditions: GIPR S382T (7.47), mean, n = 3, duplicate.

In the next assay the target is T3, GIPR K397N (Homo sapiens, UniProt P48546, K397N).
T3 sequence (P48546 22-466 K397N): T2 sequence (P48546 22-466 S382T) with T361S, K376N
As to conditions: GIPR K397N (ICD), mean, n = 3, duplicate.

Assay [1] concerns the target T4, GIPR S415I (Homo sapiens, UniProt P48546, S415I).
T4 sequence (P48546 22-466 S415I): T2 sequence (P48546 22-466 S382T) with T361S, S394I
As to conditions: GIPR S415I (ICD), mean, n = 3, duplicate.

The target of another assay is T5, GIPR E461* (Homo sapiens, UniProt P48546).
T5 sequence (P48546 22-460 limits assumed): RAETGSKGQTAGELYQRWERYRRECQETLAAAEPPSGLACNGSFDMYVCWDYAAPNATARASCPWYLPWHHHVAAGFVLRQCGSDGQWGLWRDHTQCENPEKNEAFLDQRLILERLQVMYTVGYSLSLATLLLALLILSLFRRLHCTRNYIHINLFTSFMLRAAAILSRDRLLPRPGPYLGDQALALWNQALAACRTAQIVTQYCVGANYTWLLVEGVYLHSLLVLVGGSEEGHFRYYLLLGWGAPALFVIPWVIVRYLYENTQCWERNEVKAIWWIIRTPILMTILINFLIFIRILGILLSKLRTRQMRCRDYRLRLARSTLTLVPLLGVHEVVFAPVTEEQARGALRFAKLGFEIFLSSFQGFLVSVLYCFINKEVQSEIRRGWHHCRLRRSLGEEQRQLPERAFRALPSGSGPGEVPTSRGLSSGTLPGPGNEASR
The conditions noted are these: HEK293A, 1 µM GIP minus vehicle, n = 4, P = 0.0034.

A further assay concerns the target T6, GIPR A185V (Homo sapiens, UniProt P48546, A185V).
T6 sequence (P48546 22-466 A185V): T2 sequence (P48546 22-466 S382T) with A164V, T361S
Put plainly: cAMP accumulation. It counts as cell-based. Further details: host or cells: HEK293.

Assay [2] addresses T4, GIPR S415I. Put plainly: cAMP accumulation. It is filed as cell-based. Also on record: host or cells: HEK293.
The mark [3] stands for this setting: HEK293, GIP(1–42) 1 pM–100 nM, 30 min 37 °C, mean of n = 6.
[4] abbreviates: HEK293, Hill slope 1.0, mean of n = 6.

Take “glucose-dependent insulinotropic polypeptide [GIP]”: the “cAMP (Emax)” value at GIPR S382Y (setting [3]) is recorded as 43 % of WT GIPR activity; at GIPR A185V (HEK293, GIP(1–42) 1 pM–100 nM, 30 min 37 °C, mean of n = 3), 27 % of WT GIPR activity; on GIPR S415I [2] (setting [3]), 71 % of WT GIPR activity. The “logEC50 (cAMP)” value at GIPR S382Y (setting [4]) is -6.6; on GIPR A185V (HEK293, Hill slope 1.0, mean of n = 3) it was -11.6; on GIPR S415I [2] (setting [4]), -11.2. Also, the “logEC50 (Arrestin)” value at GIPR S382T (Hill slope 1.0) is on record as -9.4; on GIPR K397N (Hill slope 1.0), -8.9; at GIPR S415I [1] (Hill slope 1.0), -9.1. Also, the “Arrestin (Emax)” value at GIPR S382T (normalized to WT GIPR) is on record as 6; on GIPR K397N (normalized to WT GIPR) it was 38; on GIPR S415I [1] (normalized to WT GIPR) it was 93. Further, the “Mean of ΔBRET” value on GIPR E461* is on record as 0.1591.
